target: T1, rat nNOS (Rattus norvegicus, UniProt P29476); assay: NOS enzyme inhibitory assay (hemoglobin capture), nNOS; format: biochemical; conditions: Table 1b
T1 construct: made in house; host or cells: E. coli (plasmid pCWnNOS)

Ki | Compound
24 nM | Cc1cc(N)nc(C[C@H]2CNC[C@H]2NCCNCCc2ccccc2)c1 (racemic) [Compound P-62]
88 nM | Cc1cc(N)nc(C[C@H]2CNC[C@@H]2NCCNCCc2ccccc2)c1 (racemic) [Compound P-67]

Compound | Ki
Cc1cc(N)nc(C[C@H]2CNC[C@H]2OCC(=O)NCCc2cccc(F)c2)c1 (racemic) [Compound P-79, (±)-2-{cis-4-[(6-amino-4-methylpyridin-2-yl)methyl]pyrrolidin-3-yloxy}-N-(3-fluorophenethyl)acetamide] | 2300 nM

From patent US7994326B2 (Northwestern University, priority 2003, dated 2011)
